# Reference: BindingDB's records for doi:10.1016/0893-133X(94)00129-N (Eli Lilly, 1996)
# The chains behind the UniProt entries cited, without tags or fusion partners. Where a name states a change or a piece, a line headed by the entry shows the natural chain unless it says otherwise.
# UniProt P14842, whole entry: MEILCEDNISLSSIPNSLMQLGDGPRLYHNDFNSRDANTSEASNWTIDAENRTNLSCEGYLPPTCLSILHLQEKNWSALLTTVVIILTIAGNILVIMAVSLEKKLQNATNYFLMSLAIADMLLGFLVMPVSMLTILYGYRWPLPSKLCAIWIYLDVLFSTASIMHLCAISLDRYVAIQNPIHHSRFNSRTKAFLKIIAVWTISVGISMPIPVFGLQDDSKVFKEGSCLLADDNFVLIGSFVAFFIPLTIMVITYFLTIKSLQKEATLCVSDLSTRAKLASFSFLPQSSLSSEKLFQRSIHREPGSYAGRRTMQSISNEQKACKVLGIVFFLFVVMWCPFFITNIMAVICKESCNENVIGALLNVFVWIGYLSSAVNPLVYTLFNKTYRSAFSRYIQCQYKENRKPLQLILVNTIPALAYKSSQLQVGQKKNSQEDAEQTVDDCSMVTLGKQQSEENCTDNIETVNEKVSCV
# UniProt P08483, whole entry: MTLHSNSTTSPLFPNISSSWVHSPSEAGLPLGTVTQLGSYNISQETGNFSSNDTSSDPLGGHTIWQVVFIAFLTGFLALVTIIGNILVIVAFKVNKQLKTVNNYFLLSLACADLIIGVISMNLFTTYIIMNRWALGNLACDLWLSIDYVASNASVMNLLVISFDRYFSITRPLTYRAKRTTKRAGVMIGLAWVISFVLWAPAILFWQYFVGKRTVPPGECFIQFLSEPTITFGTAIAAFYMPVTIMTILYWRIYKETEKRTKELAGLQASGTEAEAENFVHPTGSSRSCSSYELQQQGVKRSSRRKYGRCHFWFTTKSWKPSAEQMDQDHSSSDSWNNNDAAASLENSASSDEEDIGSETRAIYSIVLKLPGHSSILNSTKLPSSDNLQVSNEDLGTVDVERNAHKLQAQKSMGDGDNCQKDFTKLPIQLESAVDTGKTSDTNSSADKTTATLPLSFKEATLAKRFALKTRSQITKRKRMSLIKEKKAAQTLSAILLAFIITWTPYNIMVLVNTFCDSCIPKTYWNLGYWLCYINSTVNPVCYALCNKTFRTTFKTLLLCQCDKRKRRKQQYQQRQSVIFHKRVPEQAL
# UniProt P22086, whole entry: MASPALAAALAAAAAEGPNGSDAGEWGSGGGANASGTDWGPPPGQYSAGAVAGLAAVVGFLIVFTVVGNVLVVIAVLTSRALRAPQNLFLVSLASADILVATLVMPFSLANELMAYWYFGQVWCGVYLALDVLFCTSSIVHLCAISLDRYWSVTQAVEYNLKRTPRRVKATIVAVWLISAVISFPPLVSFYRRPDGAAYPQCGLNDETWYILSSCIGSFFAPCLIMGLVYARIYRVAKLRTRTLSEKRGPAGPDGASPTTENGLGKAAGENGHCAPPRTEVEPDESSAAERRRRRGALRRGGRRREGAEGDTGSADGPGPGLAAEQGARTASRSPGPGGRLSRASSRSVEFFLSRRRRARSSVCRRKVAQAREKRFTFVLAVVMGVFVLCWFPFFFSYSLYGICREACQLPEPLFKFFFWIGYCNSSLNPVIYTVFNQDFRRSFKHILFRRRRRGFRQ
# UniProt P11229: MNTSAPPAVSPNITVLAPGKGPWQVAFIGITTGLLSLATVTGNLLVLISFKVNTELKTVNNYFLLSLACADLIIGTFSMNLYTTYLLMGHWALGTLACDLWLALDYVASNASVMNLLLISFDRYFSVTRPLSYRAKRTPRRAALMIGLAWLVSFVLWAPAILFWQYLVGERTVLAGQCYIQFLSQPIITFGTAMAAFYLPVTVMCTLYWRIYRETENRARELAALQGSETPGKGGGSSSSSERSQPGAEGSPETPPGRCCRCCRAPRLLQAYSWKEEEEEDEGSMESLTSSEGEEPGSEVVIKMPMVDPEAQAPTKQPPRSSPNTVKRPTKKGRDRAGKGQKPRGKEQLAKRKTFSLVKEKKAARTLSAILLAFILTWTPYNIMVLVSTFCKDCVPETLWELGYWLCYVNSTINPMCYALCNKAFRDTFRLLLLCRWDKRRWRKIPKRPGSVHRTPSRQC
# UniProt P20309, whole entry: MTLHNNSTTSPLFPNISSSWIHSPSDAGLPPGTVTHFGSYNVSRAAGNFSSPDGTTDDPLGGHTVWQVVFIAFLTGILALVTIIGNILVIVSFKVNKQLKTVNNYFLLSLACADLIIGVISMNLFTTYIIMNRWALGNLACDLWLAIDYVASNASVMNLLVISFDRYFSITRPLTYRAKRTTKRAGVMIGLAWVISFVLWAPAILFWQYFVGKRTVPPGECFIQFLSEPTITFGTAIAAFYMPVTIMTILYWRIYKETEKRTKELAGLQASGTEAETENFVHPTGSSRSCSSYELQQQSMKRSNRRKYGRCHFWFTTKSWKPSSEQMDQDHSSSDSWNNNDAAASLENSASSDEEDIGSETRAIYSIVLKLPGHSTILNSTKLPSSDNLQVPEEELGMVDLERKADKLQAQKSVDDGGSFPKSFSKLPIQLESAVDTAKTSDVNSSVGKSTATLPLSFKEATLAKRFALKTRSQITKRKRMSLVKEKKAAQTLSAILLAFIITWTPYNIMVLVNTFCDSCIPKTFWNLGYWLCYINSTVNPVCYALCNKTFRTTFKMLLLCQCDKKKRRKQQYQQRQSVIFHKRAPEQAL
# Legend:
# [1] = target: 5-hydroxytryptamine receptor 2A (Rattus norvegicus, UniProt P14842)
# [2] = target: Muscarinic acetylcholine receptor M3 (Rattus norvegicus, UniProt P08483)
# [3] = target: Alpha-2C adrenergic receptor (Rattus norvegicus, UniProt P22086)
# [4] = target: Muscarinic acetylcholine receptor M1 (Homo sapiens, UniProt P11229)
# [5] = target: Muscarinic acetylcholine receptor M3 (Homo sapiens, UniProt P20309)
smiles,measurement,setting,value
Cc1cc2c(s1)=Nc1ccccc1NC=2N1CCN(C)CC1 [CAS_132539-06-1],Ki,[1],4 nM
same,Ki,[2],25 nM
"Cc1nc2n(c(=O)c1CCN1CCC(c3noc4cc(F)ccc34)CC1)CCCC2 [3-{2-[4-(6-Fluoro-benzo[d]isoxazol-3-yl)-piperidin-1-yl]-ethyl}-2-methyl-6,7,8,9-tetrahydro-pyrido[1,2-a]pyrimidin-4-one(risperidone)]",Ki,[3],3 nM
"CN1CCN(C2=c3ccccc3=Nc3ccc(Cl)cc3N2)CC1 [6-chloro-10-(4-methylpiperazin-1-yl)-2,9-diazatricyclo[9.4.0.0^{3,8}]pentadeca-1,3(8),4,6,10,12,14-heptaene]",Ki,[4],1.4 nM
same,Ki,[5],7 nM
same,Ki,[2],14 nM
